Test results as given in patent US20110257035A1, “IDENTIFICATION OF SIGNATURE GENES ASSOCIATED WITH HEPATOCELLULAR CARCINOMA” (Bayer Healthcare LLC, priority 2008, published 2011).
“Also recorded” adds a separate entry of the source.

How the values were obtained:
plasma s-VEGFR-2 = experiment: Plasma s-VEGFR-2 ELISA, baseline vs C3D1, HCC patients; type: in vivo, human; conditions: sorafenib-treated HCC patients
Experimental: (§1) Plasma samples were obtained from patients at the time of screening, C3D1, and at the end of treatment visit. Samples from screening and C3D1 were assayed; samples from the end of treatment visit have not been assayed.
(§2) All six assays were sandwich immunoassays obtained from commercial sources. All assays were performed according to the manufacturers' protocols, as summarized below. All samples were assayed in duplicate and the average value was used for correlative analysis. Averaged biomarker values for each timepoint for each patient are given in Appendix 1.
ELISA kits for VEGF (cat #DVE00), s-VEGFR-2 (cat #DVR200), HGF (cat #DHG00), and c-KIT (cat #DSCR00) were obtained from R&D Systems.
A monoclonal capture antibody specific to the target protein was provided pre-coated in microplate wells. Appropriately diluted samples and standards were pipetted into the wells, allowing capture of the target protein by the immobilized antibodies. Unbound sample was washed away, and a horseradish peroxidase-conjugated antibody also specific for the target protein was added to the wells. Wells were washed again, and a substrate solution was added to each well. The colored reaction product was measured spectrophotometrically and was translated to the quantity (pg/mL or ng/mL) of biomarker protein in the sample by use of a simultaneously generated standard curve.

plasma s-VEGFR-3 = experiment: Plasma s-VEGFR-3 ELISA, baseline vs C3D1, HCC patients; type: in vivo, human; conditions: sorafenib-treated HCC patients
Experimental: as §1, §2
ELISA kits for s-VEGFR-3 (cat #DY349) were obtained from R&D Systems.
A capture antibody specific to the target protein was provided in solution by the manufacturer and was coated into microplate wells before running the assay. Appropriately diluted samples and standards were pipetted into the wells, allowing capture of the target protein by the immobilized antibodies. Unbound sample was washed away, and a biotinylated antibody also specific for the target protein was added to the wells. After washing, a streptavidin-horseradish peroxidase conjugate was added. Wells were washed again, followed by addition of a substrate solution. The colored reaction product was measured spectrophotometrically and was translated to the quantity (pg/mL) of biomarker protein in the sample by use of a simultaneously generated standard curve.

CNC(=O)c1cc(Oc2ccc(NC(=O)Nc3ccc(Cl)c(C(F)(F)F)c3)cc2)ccn1 [Sorafenib]
Direction of change of plasma s-VEGFR-2 in response to sorafenib (plasma s-VEGFR-2): attenuated; also recorded: decrease | Direction of change of plasma s-VEGFR-3 in response to sorafenib (plasma s-VEGFR-3): attenuated; also recorded: decrease
